Article PMC3131519 (Frontiers in Microbiology, 2011)
Entries after “also recorded” stand apart in the source; their conditions may differ.

How the values were obtained:
[1] = system: P. aeruginosa (ATCC 19429); assay: Galleria mellonella infection by P. aeruginosa, treatment survival; type: in vivo; details: 1 × 10^3 CFU P. aeruginosa, single dose 10 μg peptide
[2] = system: red blood cells; details: 100 μg/ml peptide; ref de Latour et al., 2010; Dean et al., 2011; cited from earlier work
[3] = system: P. aeruginosa (ATCC 19429) biofilm; assay: Biofilm production; type: cell-based, Pseudomonas aeruginosa; details: 1.0, 0.1 and 0.01 μg/ml peptide, TSB (86 mM NaCl), 24 h, 37°C, crystal violet, n = 6

## CC[C@H](C)[C@H](NC(=O)[C@@H](NC(=O)[C@H](CCCCN)NC(=O)[C@H](CC(C)C)NC(=O)[C@H](CCCCN)NC(=O)[C@H](CCCCN)NC(=O)[C@H](Cc1ccccc1)NC(=O)[C@H](Cc1ccccc1)NC(=O)[C@H](CCCCN)NC(=O)[C@H](CCCCN)NC(=O)[C@H](Cc1ccccc1)NC(=O)[C@H](CCCNC(=N)N)NC(=O)[C@H](CCCCN)NC(=O)[C@H](CCCCN)NC(=O)[C@@H](NC(=O)[C@H](CO)NC(=O)[C@H](CC(N)=O)NC(=O)[C@H](CCCCN)NC(=O)[C@H](CC(C)C)NC(=O)[C@H](CCCCN)NC(=O)[C@H](CCCCN)NC(=O)[C@H](Cc1ccccc1)NC(=O)[C@H](Cc1ccccc1)NC(=O)[C@H](CCCCN)NC(=O)[C@H](CCCCN)NC(=O)[C@H](Cc1ccccc1)NC(=O)[C@H](CCCNC(=N)N)NC(=O)[C@@H](N)CCCCN)C(C)C)C(C)C)C(=O)NCC(=O)N[C@H](C(=O)N[C@H](C(=O)N[C@@H](Cc1ccccc1)C(=O)N1CCC[C@H]1C(=O)N[C@@H](Cc1ccccc1)C(=O)O)[C@@H](C)O)C(C)C [NA-CATH:ATRA1-ATRA1]
[1]
  effectiveness at prolonging survival vs infected control, in words: did not improve survival; also recorded: ineffective at prolonging survival
[2]
  hemolysis: no significant hemolysis
[3]
  anti-biofilm activity (inhibition of biofilm formation), in words: lack of anti-biofilm activity; also recorded: ineffective in inhibiting biofilm formation
